In PMC6838339, “Discovery of Novel Multi-target Inhibitor of angiotensin type 1 receptor and neprilysin inhibitors from Traditional Chinese Medicine” (Scientific Reports, 2019):

Target: T1, Angiotensin II type-1 receptor (AT1) (Homo sapiens, UniProt P30556)
T1 construct: gene AGTR1
Test: FLIPR calcium influx assay in HEK293/Ga15/AT1 cells, angiotensin II stimulated
Assay type: cell-based

## CCCc1nc2c(C)cc(-c3nc4ccccc4n3C)cc2n1Cc1ccc(-c2ccccc2C(=O)O)cc1 [telmisartan]
  IC50: 1.83 nM
